# Measurements published in patent US11828750B2, “Material for screening for compound acting on ION channel and use thereof” (PUBLIC UNIVERSITY CORPORATION NAGOYA CITY UNIVERSITY, priority 2016, dated 2023).
# Amino acid sequences for entries named in this document (tags omitted).
# UniProt Q9NPC2, whole entry, species assumed: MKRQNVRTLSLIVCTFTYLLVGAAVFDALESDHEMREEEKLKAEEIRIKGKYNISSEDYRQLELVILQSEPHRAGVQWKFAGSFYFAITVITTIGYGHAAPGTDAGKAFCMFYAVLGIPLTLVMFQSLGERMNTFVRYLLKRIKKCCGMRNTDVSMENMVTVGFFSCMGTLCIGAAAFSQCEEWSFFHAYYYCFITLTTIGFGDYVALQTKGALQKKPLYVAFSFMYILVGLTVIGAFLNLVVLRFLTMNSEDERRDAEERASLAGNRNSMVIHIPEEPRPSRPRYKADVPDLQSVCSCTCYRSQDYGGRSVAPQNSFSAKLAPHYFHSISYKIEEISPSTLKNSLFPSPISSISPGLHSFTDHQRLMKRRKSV
# Tests used:
# TASK-3 [1] = molecular target: T1, TASK-3 (Homo sapiens, UniProt Q9NPC2); details: literature value (Coburn et al. 2012; Zou et al. 2010); read-out: literature / reported IC50 for TASK-3; cited from earlier work
# TASK-3 [2] = molecular target: T1, TASK-3; experiment: Cell death assay in TASK-3 test cells (hTASK-3 transiently expressing Kir 2.1#mutated Nav cells); format: cell-based; parameters: expressed in transfected cells; host or cells: HEK293 Kir 2.1 + mutated Nav cells, transient expression via baculovirus vector
# Procedure: With the TREK-1 test cells, the culture medium was replaced with measurement buffer (137 mM NaCl, 5.9 mM KCl, 2.2 mM CaCl2, 1.2 mM MgCl2, 14 mM glucose, 10 mM HEPES (pH 7.4 with NaOH), this also applies in the following) and BaCl2 was added to provide 200 μM Ba ion, a Kir 2.1 inhibitor. This was followed by incubation for approximately 12 hours under conditions of 37° C., atmospheric pressure, and 5% CO2 and monitoring of cell death. […] The measurement of cell death was carried out using the MTT method with reference to a paper by the present inventors (Yamazaki, D., et al., Am J Physiol Cell Physiol 300, C75-86, 2011). […]
substance,measurement,setting,value
ML365,IC50,TASK-3 [1],480 nM
same,induction of cell death by inhibitor,TASK-3 [2]; in the presence of 200 μM Ba ion,cell death was observed in a concentration-dependent regime
same,concentration above which a sharp increase in the induction of cell death occurred,TASK-3 [2]; in the presence of Ba ion,> 100 nM
